Earlier results as cited in US20250262305A1 (Aegis Therapeutics, LLC, priority 2018, published 2025).

Conditions: Mean ± SD, cited from earlier work

CNC[C@H](O)c1ccc(O)c(O)c1 [Epinephrine, (R)-4-(1-Hydroxy-2-(methylamino)ethyl)benzene-1,2-diol]
Cmax (Intramuscular (IM) 0.3 mg): 0.309 ± 0.088 ng/mL
AUC0-120 min (Intranasal (IN) 5 mg): 19.4 ± 12.1 ng·min/mL
